US20240228512A1, “ACYCLIC OXAZEPINE COMPOUNDS COMPRISING A 6-AZA MOIETY AND USES THEREOF” (Genentech, Inc., priority 2022, published 2024)

Tests used:
Format in all cases: cell-based
[1] = system: SW620 cells; test: SW620 3D proliferation assay (CellTiter-Glo); settings: SW620, 3D culture, 7 days, read-out: SW620 CTG IC50
Description: (§1) SW620 and HPAC 3D proliferation assays.
(§2) Compound potencies were assessed in proliferation assays conducted with SW620 and HPAC cell lines grown in 3D cultures. Cells were seeded into 96- or 384-well ultra-low attachment plates at 3000 or 1000 cells/well, respectively, in culture medium (RPMI-1640, 10% FBS, 2 mM L-glutamine). The plated cells were centrifuged briefly, allowed to rest for 30 minutes under ambient conditions, and cultured overnight at 37° C./5% CO2 to initiate the formation of spheroids. Compound dilutions were prepared across a range of concentrations in DMSO and added to the appropriate wells of the assay plates with a 333-fold dilution into the culture medium. The plates were further incubated for 7 days. The quantity of viable cells was assessed using CellTiter-Glo 3D Cell Viability Assay (Promega). The detection reagent penetrates the spheroids and lyses the cells. The released ATP that was detected with luciferase and a luciferase substrate to generate a luminescent readout. […] The data points were fit to a 4-parameter logistic equation to determine IC50 values.

[2] = system: H1975 cells; test: H1975 CTG proliferation assay
[3] = system: HPAC cells; test: HPAC 3D proliferation assay (CellTiter-Glo); settings: 3D culture, 7 days, read-out: HPAC CTG IC50
Description: as §1, §2

[4] = system: SW620 PERK; test: SW620 PERK assay

**Q.** For Cc1c(F)c(N)c(F)c(-c2nc3c4c(nc(OC[C@@H]5CCCN5C)nc4c2F)N([C@@H](C)c2cccnc2N)CCO3)c1C(F)(F)F [compound 625], which IC50 [1] is on record?
**A.** The IC50 was 62.4 nM.

**Q.** What about the IC50 [2] of the same compound?
**A.** Its IC50 is 759 nM.

**Q.** And the IC50 [3]?
**A.** The IC50 was 451 nM.

**Q.** What about the IC50 [4] of the same compound?
**A.** Its IC50 is 59.3 nM.
